These are literature values, as cited in patent US20040038428A1, “Protein microarrays” (priority 2000, published 2004).

Sequences of proteins named here, by UniProt entry; tags and fusion partners are left off.
UniProt P62942, whole entry: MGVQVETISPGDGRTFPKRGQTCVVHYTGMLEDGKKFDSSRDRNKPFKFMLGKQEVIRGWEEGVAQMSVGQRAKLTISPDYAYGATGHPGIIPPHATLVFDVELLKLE

pKd: −log10 of the molar value.

This data set has as its target FKBP12 (Homo sapiens, UniProt P62942). The conditions noted are these: read-out: dissociation constants for FKBP12; cited from earlier work.

For `CCC(C)(C)C(=O)C(=O)N1CCCC[C@H]1C(=O)OC(CCc1ccc(OC)c(OC)c1)c1cccc(OCC(=O)O)c1` (stereo partly shown), the pKd is 8.06.
